Source: PubChem (Broad Institute)
This is a sample that favours compounds with a hit; in the whole collection about 1.8% have one here.
Cneo AK release = Cryptococcus neoformans lysis via adenylate kinase release. actives 0.2% (n = 360,000). lysis activity, % at 15 µM. C. neoformans lysis, adenylate kinase release luminescence, 4 h; normalised: neutral wells 0, clomiphene wells 100;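 active = mean lysis activity across replicates of at least 80%, whatever share of replicates individually reach that level; inactive = mean lysis activity below 80%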
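Material – Cryptococcus neoformans yeast cells · Quantity – 5 × 10^6 yeast cells/mL · Buffer or medium – YPD medium · Compound – single dose · Timing – 4 h static compound exposure, 37 °C, read 1 h post-reagent · Signal – adenylate kinase release luminescence · Read-out basis – lysis from increased AK signal · Benchmarks – Clomiphene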
E-sel inducer = E-selectin induction on HUVECs; P16581; HUVEC E-selectin immunofluorescence imaging; normalized: neutral wells 0, TNF-alpha wells 100; activation, % at 7.58 µM; actives 0.37% (n = 260,000);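 active = mean E-selectin-positive cell signal at least 10% of the positive control, reached in at least 60% of replicates, without over 20% cell loss; inconclusive = no rule given, readout overlaps actives, possibly toxicity-flagged; inactive = the rest, including those meeting only one limit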
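Test system: HUVEC | Signal: Immunofluorescence imaging | Read-out: Percent E-selectin-positive cells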
UUG fidelity = modulators of start codon recognition fidelity in yeast. S. cerevisiae UUG-firefly luciferase reporter, luminescence/redox ratio. activity score, % at 18.7 µM. 0.13% of 350,000 active. AID 602363;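 active = replicate mean at a twofold rise or more, about +100% in these data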;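 also: firefly luciferase made from a UUG start codon reports start codon fidelity; reporter light over untreated wells divided by growth signal over untreated wells; some hits fall short of that in this replicate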
DENV2 CPE rescue = inhibitors of DENV2 cytopathic effect; DENV2-infected cells, cytopathic effect rescue, plate reader; CPE inhibition, % at 9.99 µM; actives 1.7% (n = 350,000); AID 651640; in the data active = CPE inhibition above about 20%, passing the limit was not always enough; inconclusive = no clear call, values can overlap the other calls; tested in BHK-21 cells
Hits are given with their value; 0 = inactive; ? = inconclusive; - = no result given; ! = not active in a repeat.

SMILES | Cneo AK release | E-sel inducer | UUG fidelity | DENV2 CPE rescue
COC(=O)C1=C(c2c(C)noc2C)C[C@@H]2CC[C@H]1N2C(=O)N1CCC(C)CC1 | 0 | 0 | 0 | 51.2
COC(=O)[C@@H]1[C@@H](CO)[C@@H]2Cn3c(ccc(-c4cccc(OC)c4)c3=O)[C@H]1N2C(=O)c1ccccc1F | 0 | 0 | - | 0
C[C@]12C[C@H](O)[C@@H](O)C[C@@H]1CC[C@@H]1[C@@H]2CC[C@]2(C)C(=O)CC[C@@H]12 | 0 | - | 0 | 33.4
CCOC(=O)c1cccc(C2=C(CNC(C)=O)[C@H]3CC[C@@H](C2)N3Cc2ccccc2)c1 | 0 | 0 | 0 | 32.0
CC(=O)N1[C@@H]2c3ccc(-c4cccc(C(=O)N(C)C)c4)c(=O)n3C[C@H]1[C@H](CO)[C@H]2C(=O)O | - | 0 | - | 0
CCN(CC)c1ccc(/C=C/[N+](=O)[O-])cc1 | 0 | 0 | 0 | 0
CCN(CC)c1ccccc1 | 0 | - | 0 | 129.2
CN(C)c1ccc([P+](=O)c2ccc(N(C)C)cc2)cc1 | - | - | - | 0
CN(C)c1cc[n+](CC(O)C[n+]2ccc(N(C)C)cc2)cc1 | 0 | - | 0 | 25.1
COc1ccc(NC(=S)N2Cc3ccccc3-n3nncc3C2)c(OC)c1 | 0 | - | 0 | 25.2
Cc1ccc2c(c1N)C(=O)c1ccccc1C2=O | 0 | - | 0 | 30.5
C=C(Cl)CSC(=S)N(CC)CC | 0 | - | 0 | 32.3
Cc1sc2ccccc2c1CC1=NCCN1 | 0 | 0 | 0 | 0
Nc1ccc(CC2=NCCN2)cc1 | - | 0 | - | 37.8
CC=Cc1ccc2n(c1=O)C[C@H]1[C@H](CO)[C@@H](C(=O)OC)[C@@H]2N1C(=O)CC (mixture of isomers) | 0 | 0 | - | 0
O=C(Cc1ccccc1)N1C[C@H]2[C@@H](c3ccccc31)[C@@H](CO)N2Cc1ccccc1 | 0 | 0 | 0 | 0
CCCCOC(=O)c1ccccc1N | 0 | - | 0 | 0
Nc1ccccc1C(=O)OCCc1ccccc1 | 0 | - | 0 | 77.8
COC(=O)[C@H]1[C@H](CO)[C@H]2Cn3c(ccc(-c4cccnc4)c3=O)[C@@H]1N2CCc1ccccc1 | 0 | 0 | - | 0
c1ccc2c(c1)[IH]c1ccccc1-2 | 0 | 0 | 151.3 | 0
O=C(CN1CC(c2ccccc2)CC1=O)Nc1ccccc1 (centres undefined) | 0 | - | 0 | 114.8
O=C(O)[C@@H]1[C@@H](CO)[C@@H]2Cn3c(ccc(C4=CCCCC4)c3=O)[C@H]1N2CCc1ccccc1 | - | 0 | - | -
COC(=O)C1=C(c2ccc(OC(F)(F)F)cc2)C[C@@H]2CC[C@H]1N2C(=O)NCCNC(C)=O | 0 | 0 | 0 | 0
COC(=O)C1=C(c2ccc(OC(F)(F)F)cc2)C[C@@H]2CC[C@H]1N2C(=O)NCCOc1ccc(OC)cc1 | 0 | 0 | 0 | 26.0
COC(=O)C1=C(c2ccc(OC(F)(F)F)cc2)C[C@@H]2CC[C@H]1N2C(=O)NC1CCCCC1 | 0 | 0 | 0 | 37.5
SMILES | Cneo AK release | E-sel inducer | UUG fidelity | DENV2 CPE rescue
COC(=O)C1=C(c2ccc(OC(F)(F)F)cc2)C[C@@H]2CC[C@H]1N2C(=O)NC1Cc2ccccc2C1 | 0 | 0 | 0 | 0
O=C(Cc1ccccc1)N1CC2(C1)[C@H](c1ccccc1)[C@H](CO)N2Cc1cccc(F)c1 | - | 0 | - | 0
CC(C)CC#Cc1ccc([C@@H]2[C@@H](CO)N3CCCCN(C(=O)Cc4ccccn4)C[C@H]23)cc1 | 0 | 0 | 0 | -
Cc1nc2ccccc2c(=O)n1-c1cccc(O)c1 | 0 | - | 0 | -
Cc1ccc(-c2nc3ccccc3c(=O)n2-c2cccc(O)c2)cc1 | - | 164.3 | - | 0
O=C(Cc1ccccc1)N1CCCCN2[C@@H](CO)[C@H](c3ccc(-c4ccccc4)cc3)[C@@H]2C1 | 0 | 0 | 0 | 0
O=C1C2C3CCC(O3)C2C(=O)N1c1cccc(F)c1 (centres undefined) | 0 | 0 | 0 | 0
CCC(c1ccc(C)cc1)N1C(=O)C2C3CCC(O3)C2C1=O (centres undefined) | 0 | 0 | 0 | 25.3
O=C(Cc1cccnc1)N1CCCCN2[C@@H](CO)[C@@H](c3ccc(/C=C/c4ccccc4)cc3)[C@@H]2C1 | 0 | 0 | 0 | 0
CC(=O)OC1(C)CC(C)C(=O)C(C(O)CC2CC(=O)NC(=O)C2)C1 (centres undefined) | 97.8 | - | 0 | 0
Cc1cc(C)n(-c2ccc(NN=C(C#N)C#N)cc2)n1 | 0 | 0 | 0 | 31.2
N#CC(C#N)=NNc1ccc(-n2ccc(C(F)(F)F)n2)cc1 | 0 | - | 0 | 0
O=C(Cc1ccccn1)N1CC2(C1)[C@@H](c1ccccc1)[C@@H](CO)N2Cc1ccccn1 | - | 0 | - | 0
COC(=O)[C@@H]1[C@@H](CO)[C@@H]2Cn3c(ccc(/C=C/c4ccccc4)c3=O)[C@H]1N2CC1CCCC1 | 0 | 0 | - | 0
Clc1ccc([C@H]2CC3CCC2N3)cn1 (some centres undefined) | - | - | - | 48.8!
O=S(=O)(c1cc(Cl)cc(Cl)c1)N1Cc2cc(N3CCOCC3)ccc2-n2nncc2C1 | 0 | 0 | 0 | 108.0
COc1ccc(-c2ccc3n(c2=O)C[C@@H]2[C@@H](CO)[C@H](C(=O)O)[C@H]3N2C(=O)c2ccccc2F)cc1 | 0 | 0 | - | 0
CCCCN1C(=N)C(CC)(CC)C(=O)NC1=O | - | - | - | 23.6
COc1ccc(SCC2CN(C)CCC2c2ccc(F)cc2)cc1 (centres undefined) | - | 0 | - | 25.0
COc1cccc(C2CCN(C)C2)c1 (centres undefined) | 0 | 0 | 0 | 0
O=C(Cc1ccccc1)N1CC2(C1)[C@@H](c1ccccc1)[C@@H](CO)N2Cc1cccc(F)c1 | - | 0 | - | 0
O=C1C(=Cc2ccccc2)N2CCC1CC2 | 0 | 0 | 0 | 29.1
O=C1/C(=C/c2cccnc2)N2CCC1CC2 | - | - | - | 0
C[C@@H]1C(=O)O[C@H]2[C@H](O)[C@]34[C@@H]5OC(=O)[C@]3(OC3OC(=O)[C@H](O)C34[C@H](C(C)(C)C)[C@@H]5O)[C@@]12O (some centres undefined) | 0 | 0 | 0 | 41.7
CC(C)(C)[C@]1(O)C[C@@H]2OC(=O)C[C@@]23C(=O)O[C@@H]2OC(=O)[C@@H](O)C213 (some centres undefined) | 0 | 0 | 0 | ?
SMILES | Cneo AK release | E-sel inducer | UUG fidelity | DENV2 CPE rescue
CN(N)N=Nc1nc2c([nH]1)c(=O)n(C)c(=O)n2C | - | 57.8 | - | 0
COc1ccc(-c2ccc([C@@H]3[C@H]4CN(C(=O)Cc5ccccc5)CCCCN4[C@H]3CO)cc2)cc1 | 0 | 0 | 0 | 0
NCCc1ccccc1 | 0 | - | 0 | 43.2
CN(C)c1ccc(/C=C/C=C/c2sc3ccccc3[n+]2C)cc1 | 0 | 69.7 | 0 | 0
CN(C)c1ccc(/C=C/c2cc[n+](C)c3ccccc23)cc1 | - | 109.5 | - | 0
CC=Cc1ccc2n(c1=O)C[C@@H]1[C@@H](CO)[C@H](C(=O)N(C)C)[C@H]2N1C (mixture of isomers) | 0 | 0 | - | 0
C[C@@H]1CN([C@H](C)CO)C(=O)CCCn2nncc2CO[C@H]1CN(C)C(=O)Oc1ccc2ccccc2c1 | 0 | 0 | 0 | 56.4!
C[C@@H]1CN([C@@H](C)CO)C(=O)CCCn2nncc2CO[C@H]1CN(C)C(=O)Oc1ccc2ccccc2c1 | 0 | 0 | 0 | 50.2!
CCCN(CCC)CCc1c[nH]c2ccccc12 | - | - | - | 0
Fc1ccc(CNCCc2c[nH]c3ccccc23)cc1 | 0 | - | 0 | 0
NCCc1c[nH]c2ccccc12 | 0 | - | 0 | 62.6
